The chains behind the UniProt entries cited, without tags or fusion partners.
UniProt O00763, whole entry: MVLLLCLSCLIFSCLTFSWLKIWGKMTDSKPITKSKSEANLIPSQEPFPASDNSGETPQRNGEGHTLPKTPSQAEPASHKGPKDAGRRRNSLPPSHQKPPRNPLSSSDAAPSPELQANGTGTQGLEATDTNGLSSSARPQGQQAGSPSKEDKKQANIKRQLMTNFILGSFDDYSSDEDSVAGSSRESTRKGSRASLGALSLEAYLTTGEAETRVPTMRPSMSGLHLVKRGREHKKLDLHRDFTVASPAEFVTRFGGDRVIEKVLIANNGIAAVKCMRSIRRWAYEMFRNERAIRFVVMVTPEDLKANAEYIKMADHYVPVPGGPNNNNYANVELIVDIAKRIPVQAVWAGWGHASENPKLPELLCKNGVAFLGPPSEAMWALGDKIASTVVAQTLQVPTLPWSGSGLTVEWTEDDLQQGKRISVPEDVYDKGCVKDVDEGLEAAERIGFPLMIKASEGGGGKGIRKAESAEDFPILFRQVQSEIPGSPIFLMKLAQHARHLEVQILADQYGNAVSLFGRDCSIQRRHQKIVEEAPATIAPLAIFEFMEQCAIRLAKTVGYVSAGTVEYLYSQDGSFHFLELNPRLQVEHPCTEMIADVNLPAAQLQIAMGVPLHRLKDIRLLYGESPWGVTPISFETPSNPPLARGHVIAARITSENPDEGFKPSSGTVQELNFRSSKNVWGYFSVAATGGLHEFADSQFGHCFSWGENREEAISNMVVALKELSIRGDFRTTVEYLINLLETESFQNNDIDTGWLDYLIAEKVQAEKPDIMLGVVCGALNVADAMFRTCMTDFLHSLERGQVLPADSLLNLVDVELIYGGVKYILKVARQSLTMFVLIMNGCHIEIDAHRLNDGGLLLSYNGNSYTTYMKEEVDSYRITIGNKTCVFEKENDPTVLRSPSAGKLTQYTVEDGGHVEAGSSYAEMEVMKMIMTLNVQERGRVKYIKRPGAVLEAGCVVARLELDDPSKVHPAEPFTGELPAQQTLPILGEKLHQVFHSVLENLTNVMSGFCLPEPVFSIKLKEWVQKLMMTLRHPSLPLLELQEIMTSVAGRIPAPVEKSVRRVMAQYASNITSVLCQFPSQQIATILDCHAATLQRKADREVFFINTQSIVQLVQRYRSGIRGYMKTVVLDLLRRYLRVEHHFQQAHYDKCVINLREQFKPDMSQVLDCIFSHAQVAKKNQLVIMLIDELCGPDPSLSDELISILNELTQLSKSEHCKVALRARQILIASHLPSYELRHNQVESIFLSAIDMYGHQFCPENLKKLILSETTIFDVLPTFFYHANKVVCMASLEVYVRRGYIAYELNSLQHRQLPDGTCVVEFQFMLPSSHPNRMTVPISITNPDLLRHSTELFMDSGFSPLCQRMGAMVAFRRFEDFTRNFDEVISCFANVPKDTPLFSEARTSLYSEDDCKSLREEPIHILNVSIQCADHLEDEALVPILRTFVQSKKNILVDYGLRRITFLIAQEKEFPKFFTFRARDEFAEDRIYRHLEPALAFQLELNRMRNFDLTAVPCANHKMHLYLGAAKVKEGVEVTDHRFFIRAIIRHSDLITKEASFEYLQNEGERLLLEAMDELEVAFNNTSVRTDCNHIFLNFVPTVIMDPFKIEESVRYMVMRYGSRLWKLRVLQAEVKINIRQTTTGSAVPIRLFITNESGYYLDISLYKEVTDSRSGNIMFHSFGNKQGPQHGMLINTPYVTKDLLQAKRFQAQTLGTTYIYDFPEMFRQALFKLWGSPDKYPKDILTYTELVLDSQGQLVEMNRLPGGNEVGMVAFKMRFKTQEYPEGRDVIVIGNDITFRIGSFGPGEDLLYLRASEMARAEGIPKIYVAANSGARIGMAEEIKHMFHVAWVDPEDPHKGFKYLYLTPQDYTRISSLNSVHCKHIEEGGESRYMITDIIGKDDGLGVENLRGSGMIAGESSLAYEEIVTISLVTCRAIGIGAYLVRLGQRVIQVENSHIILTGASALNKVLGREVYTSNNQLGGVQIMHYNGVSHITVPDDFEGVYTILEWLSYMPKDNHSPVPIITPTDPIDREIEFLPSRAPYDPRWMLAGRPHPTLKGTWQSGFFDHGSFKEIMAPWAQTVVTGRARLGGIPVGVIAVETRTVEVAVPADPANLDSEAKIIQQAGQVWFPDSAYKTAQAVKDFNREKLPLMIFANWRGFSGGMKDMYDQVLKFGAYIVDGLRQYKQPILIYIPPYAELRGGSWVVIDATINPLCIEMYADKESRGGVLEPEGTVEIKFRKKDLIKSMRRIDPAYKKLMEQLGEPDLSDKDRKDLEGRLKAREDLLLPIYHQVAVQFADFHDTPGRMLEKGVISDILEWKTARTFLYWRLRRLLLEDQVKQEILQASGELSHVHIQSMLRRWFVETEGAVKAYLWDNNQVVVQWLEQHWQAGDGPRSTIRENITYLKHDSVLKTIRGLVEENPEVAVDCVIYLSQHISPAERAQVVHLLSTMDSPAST

According to US8318762B2, “Pyrazolospiroketone acetyl-CoA carboxylase inhibitors” (Pfizer Inc., priority 2008, dated 2012):

How the values were obtained:
recombinant human ACC2 = recombinant human ACC2 (Homo sapiens, UniProt O00763); assay: Measurement of human ACC2 inhibition (recombinant hACC2 Transcreener ADP detection FP assay); format: biochemical; details: read-out: rhACC2 IC50
rat liver ACC = rat liver ACC (Rattus norvegicus, UniProt P11497); details: read-out: Rat liver ACC IC50; rat liver ACC radio enzymatic assay

`CCn1nc2c(c1C)OC1(CCN(C(=O)c3ccc4c(OC)cccc4c3)CC1)CC2=O` gave an IC50 (recombinant human ACC2) of 35 nM and an IC50 (rat liver ACC) of 26 nM.

For `CCn1nc2c(c1C)OC1(CCN(C(=O)c3ccc4cc(C)ccc4c3)CC1)CC2=O`, the IC50 (recombinant human ACC2) was 207 nM and the IC50 (rat liver ACC) was 198 nM.

`Cc1cc2[nH]ncc2cc1C(=O)N1CCC2(CC1)CC(=O)c1nn(C(C)(C)C)cc1O2` was tested, and the IC50 (recombinant human ACC2) was 27 nM and the IC50 (rat liver ACC) was 7 nM.
